Data set [1] has as its target thrombin (Homo sapiens, UniProt P00734). Description: Inactivation of human thrombin, residual esterase activity. The class given is biochemical. The note with it: pH 7, read-out: k2 /Ki.
In data set [2] the test system is mice. Description: LD50 in mice. The class given is in vivo. The source says:
This level of inhibitor is a 100-1000 times greater than the LD50 of the reagent in mice.

Data set [3] has as its target T1, bovine thrombin (Bos taurus, UniProt P00735). The note with it: 4.5×10^-7 M thrombin + 2.25×10^-7 M label; theoretical value 50%.
The target of data set [4] is T1, bovine thrombin. Put plainly: Inactivation of bovine thrombin, remaining esterase (thioesterase) activity. Also on record: Thrombin itself is generated from a pro-enzyme, prothrombin, by the enzymatic action of another proteolytic enzyme, factor Xa. The class given is biochemical.

With `N=C(N)NCCC[C@H](NC(=O)[C@@H]1CCCN1C(=O)[C@H](N)Cc1ccccc1)C(=O)CCl` [D-Phe-Pro-ArgCH2 Cl, D-Phe-Pro-Arg-CH2 Cl.2HCl], in data set [1], the kinact/KI is 1.15e+07 M⁻¹ s⁻¹. Besides, the “level of inhibitor (1 mg in rabbits) relative to the LD50 in mice” value in data set [2] is on record as 100-1000 times. Further, the “inactivation of bovine thrombin by clotting assay” value in data set [3] turned out to be 48%. In data set [4] (1.0×10^-8 M bovine thrombin + 1.0×10^-8 M label, in less than 5 min, 50 mM Pipes pH 7.0, 0.20 M NaCl, 25° C), the “esterase activity of the protease inactivated” value is reported as 97%. Besides, in data set [4] (4.5×10^-7 M thrombin + 2.25×10^-7 M label, theoretical value 50%), the “inactivation of bovine thrombin by esterase assay” value stood at 51%. For the same molecule, the “inactivates the enzyme (thrombin)” value in data set [4] (10^-8 M affinity label, in less than 3 minutes) is “more than 95%”.

Values taken from patent US4318904A, “Peptide affinity labels for thrombin and other trypsin-like proteases” (Research Corporation, priority 1980, dated 1982).
